Measured affinities in a library of Ab-14 heavy chain variants

From the AlphaSeq antibody data of Engelhart et al. 2022 (doi:10.1038/s41597-022-01779-4), copy in the FLAb collection.

Target: peptide PDVDLGDISGINAS, taken from heptad repeat 2 (HR2) of SARS-CoV-2 spike.

Parent: Ab-14, a human scFv built as VH, a 15-residue (Gly4Ser)3 linker, VL. Only the CDRs of the heavy chain vary.
VH: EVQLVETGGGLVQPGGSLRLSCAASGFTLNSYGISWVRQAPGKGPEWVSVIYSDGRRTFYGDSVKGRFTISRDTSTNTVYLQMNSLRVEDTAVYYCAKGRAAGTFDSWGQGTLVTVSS
VL: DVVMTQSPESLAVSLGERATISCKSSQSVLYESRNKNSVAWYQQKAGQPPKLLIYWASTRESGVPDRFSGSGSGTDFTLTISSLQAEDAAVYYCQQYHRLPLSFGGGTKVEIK

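The starting antibody came from a phage panning campaign against this peptide. In library AAYL49, one, two or three CDR residues were substituted; doubles and triples were drawn at random. The assay is AlphaSeq: two haploid yeast populations carry antibody and antigen on their surface. Mating (16 h, 30 °C) was followed by selection of diploids and sequencing of their barcodes. Scores were corrected for input abundance and mapped to Kd with protein pairs of known affinity run in the same pool. The assay was run in three technical replicates.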

Substitutions are numbered in sequence along the VH above, starting at 1 (not Kabat). Scale: log10 of Kd in nM, estimated from mating counts; low values are strong binders. Averages over replicates are reported, and they cover detected replicates only. Where no diploid with the target was found in any replicate, the entry reads "nd": below detection, most likely a poor binder, though not proof of it.

changes	mean log10 Kd (nM)	replicates with signal
T28C+V50R+S53I	5.31	1/3
I51N+T58I+Y60A	nd	0/3
G26F+T28S+G33T	nd	0/3
G55Q+F59V+S63Q	4.53	1/3
I51A+T104M	3.84	3/3
L29A+R57N+G99F	nd	0/3
F27M+K65S+G99W	nd	0/3
L29K+S31F+G99W	nd	0/3
T58G+S63C+A102M	4.84	3/3
T58F+G103Q+D106E	2.25	3/3
F27I+S31H+R57F	nd	0/3
G26H+G33N+I34K	3.75	1/3
G26T+D54E+D62V	4.65	2/3
R57Y+A102N	3.95	1/3
S35A+V50Y+I51C	nd	0/3
I51S+Y52V+G99E	nd	0/3
N30G+K65N+R100A	2.36	3/3
I34A+V64R+G99N	3.37	1/3
T28W+S31L+G55F	nd	0/3
S63H+G103T+D106F	nd	0/3
G26W+V50K+R100A	nd	0/3
G55I+V64N+A101R	nd	0/3
S35H+Y52P+G55E	3.78	1/3
G33A+S53I+G99M	nd	0/3
G26T+D54I+G103M	nd	0/3
I34L+T58W	nd	0/3
F59M+G61F	2.32	1/3
Y60A+S63N+S107F	2.85	3/3
G26M+R100D	1.82	3/3
F27Q+T28L+S63W	4.24	3/3
F27W+A101F	2.00	3/3
S53V+D62Y+K65Y	4.51	2/3
G33H+I34F+G103E	nd	0/3
Y60Q+A102L+D106W	3.87	2/3
R56D+F59C+D62P	3.84	2/3
G33H+R56Y+F105C	nd	0/3
F59L+A101W+A102Y	nd	0/3
F27P+S53L+Y60N	nd	0/3
D54N+R57H+D62I	nd	0/3
I51G+D54E+F59W	nd	0/3
S31P+I51G	nd	0/3
Y32D+S63Q+V64P	nd	0/3
R57C+R100N	3.73	1/3
S53D+R56I+G61E	nd	0/3
G33P+I51K+F105M	nd	0/3
I34N+V64E+G99D	2.86	1/3
D54Y+R56M+S107F	nd	0/3
L29E+G33S+D62M	nd	0/3
G33Y+I51S+D106Q	nd	0/3

Again, the first 5 entries without any signal:

| changes | mean log10 Kd (nM) | replicates with signal |
|---|---|---|
| I51N+T58I+Y60A | nd | 0/3 |
| G26F+T28S+G33T | nd | 0/3 |
| L29A+R57N+G99F | nd | 0/3 |
| F27M+K65S+G99W | nd | 0/3 |
| L29K+S31F+G99W | nd | 0/3 |

Background: pairings of library AAYL49 with three empty control strains gave a value in 15% of cases (median 4.06, 5th percentile 2.83). Values in that range, when seen in few replicates, are hard to tell from nonspecific mating.